The text below walks through data of patent US11634743B2, “Coupled, self-sufficient biotransformation of chenodeoxcholic acid to ursodeoxycholic acid and novel enzyme mutants applicable in said process” (Pharmazell GmbH, priority 2016, dated 2023).

Amino acid sequences for entries named in this document (tags omitted). A change or cut given only in a name is not applied to a line headed by its entry. Chains listed by the source or under a name are the forms on record and can include a tag or linker. Residues count along the entry.
UniProt A4ECA9: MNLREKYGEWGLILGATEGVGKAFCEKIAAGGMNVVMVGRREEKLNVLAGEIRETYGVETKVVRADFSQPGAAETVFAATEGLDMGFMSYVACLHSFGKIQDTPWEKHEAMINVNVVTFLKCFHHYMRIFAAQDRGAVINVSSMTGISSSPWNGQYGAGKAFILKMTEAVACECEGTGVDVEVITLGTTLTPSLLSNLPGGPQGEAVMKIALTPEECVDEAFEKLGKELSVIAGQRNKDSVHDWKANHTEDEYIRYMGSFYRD
UniProt P0AET8, 1-255 with tags or gaps D42G/I43R: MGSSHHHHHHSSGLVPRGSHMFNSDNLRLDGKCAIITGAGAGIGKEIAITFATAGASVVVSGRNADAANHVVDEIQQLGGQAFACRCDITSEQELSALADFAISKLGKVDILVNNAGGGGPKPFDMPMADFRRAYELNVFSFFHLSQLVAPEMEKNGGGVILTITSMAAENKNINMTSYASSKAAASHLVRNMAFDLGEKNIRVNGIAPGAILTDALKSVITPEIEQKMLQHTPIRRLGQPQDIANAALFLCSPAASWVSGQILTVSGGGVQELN
UniProt P0AET8, 1-255 with tags or gaps: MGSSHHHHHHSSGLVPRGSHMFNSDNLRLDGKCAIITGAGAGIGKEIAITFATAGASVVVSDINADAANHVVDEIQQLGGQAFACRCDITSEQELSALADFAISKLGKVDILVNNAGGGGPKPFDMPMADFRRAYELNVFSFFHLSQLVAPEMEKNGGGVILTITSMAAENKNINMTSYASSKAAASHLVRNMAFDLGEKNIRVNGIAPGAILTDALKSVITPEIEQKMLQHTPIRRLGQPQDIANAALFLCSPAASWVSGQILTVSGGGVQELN

Experiment [1] concerns the target 7β-HSDH obtainable from Collinsella aerofaciens DSM 3979 (Collinsella aerofaciens, UniProt A4ECA9). To be noted: cited from earlier work; for vmax: 1 U = 1 μmol/min.
In the next experiment the target is 7α-HSDH D42G/I43R (Escherichia coli, UniProt P0AET8, D42G/I43R). In words: Michaelis-Menten kinetics of 7α-HSDH D42G/I43R NADP-dependent mutant (E. coli), purified protein.
For the next experiment, the target named is 7α-HSDH (wildtype) (Escherichia coli, UniProt P0AET8). The experiment in a line: Michaelis-Menten kinetics of 7α-HSDH wildtype (E. coli), purified protein.
Setting [2] is: apparent value, CDCA varied 10 μM-30 mM, constant 0.5 mM NADP^+.
Where [3] appears, read: CDCA varied 10 μM-30 mM, constant 0.5 mM NAD^+.
Where [4] appears, read: NADP^+ varied 10 μM-5 mM, 1 mM CDCA.

For `C[C@H](CCC(=O)O)[C@H]1CC[C@H]2[C@@H]3[C@@H](O)C[C@@H]4C[C@H](O)CC[C@]4(C)[C@H]3CC[C@]12C`, in experiment [1], the vmax was 38.17 U/mg protein, the Michaelis-Menten constant (Km) was 6.23 µM and the kcat is on record as 1179.39 1 μmol/(μmol × min).
For `C[C@H](CCC(=O)O)[C@H]1CC[C@H]2[C@@H]3[C@H](O)C[C@@H]4C[C@H](O)CC[C@]4(C)[C@H]3CC[C@]12C` [listing 1 of 2 here], the “substrate inhibition (Michaelis-Menten graphs)” value on 7α-HSDH D42G/I43R (CDCA, compared with wildtype) is on record as “inhibition is more pronounced”; at 7α-HSDH (wildtype) (CDCA), “show a substrate inhibition for CDCA”. The vmax result is recorded as “^a) 167.8 ± 6.3 U/mg” on 7α-HSDH D42G/I43R (setting [2]) and 193.3 ± 7.9 U/mg on 7α-HSDH (wildtype) (setting [3]). Besides, the Km at 7α-HSDH (wildtype) (setting [3]) worked out at 56.1 µM.
For `C[C@H](CCC(=O)O)[C@H]1CC[C@H]2[C@@H]3[C@H](O)C[C@@H]4C[C@H](O)CC[C@]4(C)[C@H]3CC[C@]12C` [listing 2 of 2 here], at 7α-HSDH D42G/I43R (setting [2]), the Km came to 328 µM. The molecule also came in with a Ki at 7α-HSDH (wildtype) (substrate inhibition, CDCA varied 10 μM-30 mM, constant 0.5 mM NAD^+) of 2960 µM.
`C[C@H](CCC(=O)O)[C@H]1CC[C@H]2[C@@H]3C(=O)C[C@@H]4CC(=O)CC[C@]4(C)[C@H]3CC(=O)[C@]12C`: in experiment [1], the vmax was 28.33 U/mg protein, the Km is 9.23 µM and the kcat is given as 875.35 1 μmol/(μmol × min).
Regarding `NC(=O)c1ccc[n+]([C@@H]2O[C@H](COP(=O)([O-])OP(=O)(O)OC[C@H]3O[C@@H](n4cnc5c(N)ncnc54)[C@H](OP(=O)(O)O)[C@@H]3O)[C@@H](O)[C@H]2O)c1`, at 7α-HSDH D42G/I43R (setting [4]), the Km was determined as 314 µM and the vmax stood at 158.7 ± 7.2 U/mg. Further, in experiment [1], the vmax is given as 30.58 U/mg protein and the kcat is reported as 944.95 1 μmol/(μmol × min).

In general, Km refers to the substrate concentration at which the rate is half of its maximum.
